Ab-14 light chain CDR variants: yeast mating affinities

Reference: Li et al. 2023, doi:10.1038/s41467-023-39022-2. File: FLAb, binding data.

Binding partner: SARS-CoV-2 spike HR2 peptide, sequence PDVDLGDISGINAS.

Each scFv is VH, three GGGGS repeats, VL, as in the parent Ab-14, and differs from it in the CDRs of the light chain only.
VH: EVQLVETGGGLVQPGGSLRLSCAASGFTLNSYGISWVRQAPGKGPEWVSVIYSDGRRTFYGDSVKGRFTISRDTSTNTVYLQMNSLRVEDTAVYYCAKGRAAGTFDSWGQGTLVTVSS
VL: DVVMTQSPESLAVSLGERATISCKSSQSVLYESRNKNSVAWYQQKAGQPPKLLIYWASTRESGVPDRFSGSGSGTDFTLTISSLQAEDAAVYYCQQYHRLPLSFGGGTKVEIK

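This is the validation round: designs drawn from the data on random variants, tested in the same kind of assay. Several design methods are mixed in this list. The scFvs were displayed on barcoded MATa yeast, the peptide on MATalpha yeast. Binding brings cells together so that they mate, and sequencing counts the barcode pairs among the diploids. Read counts were normalised to the haploid input and turned into Kd by a linear fit to BCL2-family pairs of known affinity, for each replicate. There are six technical replicates.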

Variants are written as CDR1, CDR2 and CDR3 of the light chain (limits as in the source). Parent: KSSQSVLYESRNKNSVA, WASTRES, QQYHRLPLS.
Variants here have more than six changes.
The read-out is the apparent dissociation constant on a log10 scale (nM): the lower, the stronger.
The mean shown is taken over the replicates in which the pair was detected.
A pair that was not seen in any replicate is written "no signal"; this usually means weak binding, but a binder can also be missed.
Entries are sorted by rising average, undetected variants last.

Variant TLGDVTRMESNKRNSIA / DMSNRAD / QQYHRLPLS showed -0.24 (6 of 6 replicates).
Variant KLSGSQLYESRNSNSVA / NGSTRES / QDYHRLPLS showed -0.20 (6 of 6 replicates).
Variant RISRHVYDETNTYENVA / NEHIRAN / QQYSRLPLS showed -0.03 (6 of 6 replicates).
Variant TISQSAYQESHNKNSVA / DLSVRGS / QQYHRLPLS showed 0.08 (6 of 6 replicates).
Variant HVHMEMAIWKEISNNIA / DAQNRIA / QQYFRLPLG showed 0.29 (6 of 6 replicates).
Variant KLSQVTEYEQHNRDNVA / DLTTRGR / QDYHRLPLS showed 0.35 (6 of 6 replicates).
Variant KISQLVNFEGKNKNSVA / QMSTREA / QQYDRLPLS showed 0.37 (6 of 6 replicates).
Variant TISQITSLFSQTINNVA / EVSTREE / QQYDRLPLA showed 0.39 (6 of 6 replicates).
Variant KYDFSVLELSRNSNSVA / NASTREE / QDYHRLPLS showed 0.48 (6 of 6 replicates).
Variant KLSIMGLHQSIEKKSIA / ERSTREN / QQYHRLPLS showed 0.54 (6 of 6 replicates).
Variant KLMQEWLYESRLANSVA / NASTRLE / QQYHRLPLS showed 0.55 (6 of 6 replicates).
Variant NLGGEDFQDTRGMKAVA / DVSEVGD / QHYSRLPLS showed 0.57 (6 of 6 replicates).
Variant KLDHYKLGENGMRGSIA / NMTIRDQ / QQYFHLPLF showed 0.65 (6 of 6 replicates).
Variant MISQLYNMGTFAINSVA / QASERYN / QQYDRLPLM showed 0.66 (6 of 6 replicates).
Variant KLGYPSYGEVNGKHNIA / EMDQLTF / QQYSHLPLS showed 0.67 (6 of 6 replicates).
Variant KSMQEWEYQSRNKNSVA / HASKRES / QQYHRLPLS showed 0.69 (6 of 6 replicates).
Variant QLYAVQDLTTKNSNNVA / EQTTREN / QQYHRLPLS showed 0.70 (6 of 6 replicates).
Variant MISQSFLIGMKAKNSVA / QTSTRES / QQYDRLPLS showed 0.71 (6 of 6 replicates).
Variant KIAYQADMYGAQCNNVA / HADIREP / QQYFKLPLN showed 0.76 (6 of 6 replicates).
Variant KLMEQFGHSMDHMNNIA / HVDMLAQ / QQYMHLPLI showed 0.76 (6 of 6 replicates).
Variant KLTNVTGTEKVHGNNVA / EMETRER / QQYNRLPLS showed 0.84 (6 of 6 replicates).
Variant KLPQSVPYEERCFNSVA / NASTRES / QQYHRLPLS showed 0.87 (6 of 6 replicates).
Variant KIGMQVTYQSTVNNAIA / QMETREE / QQYHRLPLS showed 0.99 (6 of 6 replicates).
Variant ILYDSVGTLSRNKHSVA / DNSTRES / QQYDRLPLS showed 1.02 (2 of 6 replicates).
Variant KISYMGEHFSTNHSAIA / QASQREQ / QQYHRLPIS showed 1.12 (6 of 6 replicates).
Variant ILSDHAVNQYDEADSIA / DKTETAV / QQYARLPLS showed 1.29 (6 of 6 replicates).
Variant HITMGMYVSGRHHSSIA / QAEERAK / QQYDRLPLI showed 1.56 (6 of 6 replicates).
Variant NLSIQNQPQNMSANAVA / QTEIRCE / QQYAQLPLA showed 1.74 (6 of 6 replicates).
Variant QLYEMMQELSGKVHSVA / DNSTRGD / QQYFRLPLD showed 1.97 (6 of 6 replicates).
Variant KIEQLVFPMGKDWHSIA / NANTLLA / QQYYYLPLM showed 2.09 (5 of 6 replicates).
Variant MVNTNLVHQANRDNNIA / EAQMVAA / QDYHRLPLI showed 2.21 (4 of 6 replicates).
Variant KLDMSLNYESVALDSIA / EEVHHTA / QQYDRLPLF showed no signal (0 of 6 replicates).
Variant IYSQSVWIESRNNNSVA / RASERES / QTYHNLPLS showed no signal (0 of 6 replicates).

Extract of 2 entries:

CDR-L1,CDR-L2,CDR-L3,"log10 Kd (nM), mean",replicates with signal
KLSIMGLHQSIEKKSIA,ERSTREN,QQYHRLPLS,0.54,6/6
KLPQSVPYEERCFNSVA,NASTRES,QQYHRLPLS,0.87,6/6

The authors' rule: three or more of the six replicates give a measured affinity, fewer mean a poor binder.
As a blank, each scFv also met three strains without target: over all light chain designs, 4% of these pairings were detected, typically at 2.64 and seldom below 1.59.
Of ten entries with the parent sequence, four were seen in most replicates (averages 0.34 to 2.37), three in one and three in none, so single entries are noisy.
A sequence measured in both rounds can read differently, since the two assays cover different ranges.